This data set in a line: Metabolic stability in human liver microsomes assessed as compound remaining at 3 uM after 10 mins by HPLC/UV/MS analysis. Type of data set: ADME, Microsome. To be noted: read-out: Stability. Put shortly: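 Pooled human or rat liver microsomes (1 mg/mL protein) with 3 μM compound and 1.3 mM NADPH in 100 mM sodium phosphate pH 7.4 at 37 °C; final 0.015% DMSO, 0.985% acetonitrile; stopped at 0 and 10 min, percent remaining by LC/MS/MS.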
A general note: Liver microsomes are vesicles of endoplasmic reticulum, rich in cytochrome P450 enzymes.

Regarding `COC[C@H](C1CC1)n1cc(Cl)nc(Nc2cc(C)c(OC(F)F)nc2C)c1=O`, the remaining at 10 min, 3 µM turned out to be 93%.

The values above are taken from ChEMBL document CHEMBL1154735, “A strategy to minimize reactive metabolite formation: discovery of (S)-4-(1-cyclopropyl-2-methoxyethyl)-6-[6-(difluoromethoxy)-2,5-dimethylpyridin-3-ylamino]-5-oxo-4,5-dihydropyrazine-2-carbonitrile as a potent, orally bioavailable corticotropin-releasing factor-1 receptor antagonist” (J Med Chem, 2009).
